Results reported in patent US8987242B2, “Morpholinone compounds as factor IXA inhibitors” (Merck Sharp & Dohme Corp., priority 2008, dated 2015).

The chains behind the UniProt entries cited, without tags or fusion partners. Residues count along the entry.
UniProt P00740, 227-461: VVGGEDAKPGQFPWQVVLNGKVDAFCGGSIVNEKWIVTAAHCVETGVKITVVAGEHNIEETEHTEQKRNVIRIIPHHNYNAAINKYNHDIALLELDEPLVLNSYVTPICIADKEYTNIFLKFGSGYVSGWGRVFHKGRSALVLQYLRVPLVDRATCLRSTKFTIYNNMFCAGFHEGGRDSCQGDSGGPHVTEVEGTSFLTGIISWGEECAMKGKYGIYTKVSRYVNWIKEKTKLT
UniProt P00740, 47-191 partner: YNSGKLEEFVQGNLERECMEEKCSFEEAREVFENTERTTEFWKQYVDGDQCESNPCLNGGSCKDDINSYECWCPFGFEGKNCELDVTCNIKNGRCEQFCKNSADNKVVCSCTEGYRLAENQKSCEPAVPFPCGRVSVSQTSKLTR

Biological target: human factor IXa (Homo sapiens (Human), UniProt P00740)
Assay: Determination of inhibitory activity against factor IXa (SPECTROFLUOR FIXa fluorogenic substrate enzyme assay)
Type: biochemical
Details: human factor IXa 2.0 μg/ml, SPECTROFLUOR FIXa 100 μM, 60 minutes at room temperature, pH 8.0
Protocol: Inhibitory activity against factor IXa was tested using the substrate SPECTROFLUOR FIXa (american diagnostica inc.; 500 West Avenue, Stamford, Conn. 06902 USA; Pr. No. 299F) and human factor IXa (american diagnostica inc.; Pr. No. 449b). Test substances dissolved in buffer A (50 mM α,α,α-tris(hydroxymethyl)methylamine (Tris), 100 mM NaCl, 5 mM CaCl2, 15% (v/v) ethylene glycol, pH 8.0) were mixed with factor IXa (2.0 μg/ml final concentration). The enzyme reaction was started by addition of SPECTROFLUOR FIXa (100 μM final concentration). After incubation for 60 minutes at room temperature, the reaction was stopped by the addition of 20% (v/v) acetic acid solution, and then measured the fluorescence value (Excitation Wavelength: 355 nm, Emission Wavelength; 460 nm) in a microtiter plate reader (ARVO 1420 Multilabel Counter; PerkinElmer).
The IC50 was calculated from a dilution series of the test substance with the aid of the software, Symix Assay Explorer (Symyx Technologies, Inc.).

- IC50: 83 nM
Structure (SMILES): Nc1noc2cc(NC(=O)[C@H](O)[C@H]3OCCN(c4cccc(S(F)(F)(F)(F)F)c4)C3=O)ccc12 [Example aa150, [3-[2(R)-[2-[(3-Amino-1,2-benzisoxazol-6-yl)amino]-1(R)-hydroxy-2-oxoethyl]-3-oxo-4-morpholinyl]phenyl] pentafluorosulfur]
